Assay [1] addresses human BACE2 (Homo sapiens, UniProt Q9Y5Z0). Kind of assay: Fluorescent Kinetic Assay for Human Recombinant BACE 2 (selectivity BACE1/BACE2).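 Further: cleavage rate from the linear slope of fluorescence (excitation 320 nm, emission 420 nm) recorded every 40 s over 30 min at room temperature, sodium acetate buffer with 0.05% CHAPS.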 It is filed as biochemical. As to conditions: selectivity BACE1 over BACE2; 1.5 nM human BACE2, 25 μM substrate, pH 4.5.
Assay [2] concerns the target human BACE1 (Homo sapiens, UniProt P56817). Kind of assay: Fluorescent kinetic assay, inhibition of BACE1 (WABC-6 peptide substrate).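 Further: fluorescence monitored at 320 nm excitation and 420 nm emission every 40 s over 30 min, with the substrate cleavage rate taken from the linear slope.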 As to conditions: read-out: IC50 (μM) BACE1; 10 nM enzyme, 25 μM substrate WABC-6, pH 4.5, room temperature. Format: biochemical.

By UniProt entry, the sequences of proteins in these tests, tags left out. Residues count along the entry.
UniProt Q9Y5Z0, 63-518 limits assumed: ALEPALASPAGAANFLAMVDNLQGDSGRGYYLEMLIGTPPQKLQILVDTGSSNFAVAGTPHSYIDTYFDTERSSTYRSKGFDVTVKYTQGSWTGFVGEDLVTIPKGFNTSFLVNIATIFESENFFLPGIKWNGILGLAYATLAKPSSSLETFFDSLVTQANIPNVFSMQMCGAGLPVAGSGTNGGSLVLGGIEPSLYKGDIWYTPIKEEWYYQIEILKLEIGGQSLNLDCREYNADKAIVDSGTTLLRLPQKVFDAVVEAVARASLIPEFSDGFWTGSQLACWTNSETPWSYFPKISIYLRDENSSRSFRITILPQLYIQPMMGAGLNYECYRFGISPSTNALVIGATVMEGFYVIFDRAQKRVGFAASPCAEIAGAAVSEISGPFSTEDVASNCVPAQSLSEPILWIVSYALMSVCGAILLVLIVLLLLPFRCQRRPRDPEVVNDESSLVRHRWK
UniProt P56817, 46-501 limits assumed: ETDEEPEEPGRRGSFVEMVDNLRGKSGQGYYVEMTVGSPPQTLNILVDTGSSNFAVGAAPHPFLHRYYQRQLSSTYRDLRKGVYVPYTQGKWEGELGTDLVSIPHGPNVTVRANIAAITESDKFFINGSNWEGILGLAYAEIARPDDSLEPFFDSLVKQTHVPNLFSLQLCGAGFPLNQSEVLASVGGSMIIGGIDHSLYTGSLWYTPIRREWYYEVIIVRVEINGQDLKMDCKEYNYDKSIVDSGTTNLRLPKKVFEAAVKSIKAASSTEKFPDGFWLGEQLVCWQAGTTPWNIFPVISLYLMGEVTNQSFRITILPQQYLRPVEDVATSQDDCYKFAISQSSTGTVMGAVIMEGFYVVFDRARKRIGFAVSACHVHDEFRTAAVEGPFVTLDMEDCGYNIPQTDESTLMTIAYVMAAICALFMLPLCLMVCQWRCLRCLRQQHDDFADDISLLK

Each structure is given as a SMILES string.

By IC50 is commonly meant the midpoint of a concentration-inhibition curve. For `CN1C(=O)C(c2ccc(OCCF)cc2)(c2cccc(-c3cncnc3)c2)N=C1N` (stereo not shown), the BACE1/BACE2 selectivity entry in assay [1] was “I (I = >100-fold selectivity)”. The IC50 in assay [2] fell in the range of 0.01 to 0.1 µM.
For `COc1ccc(C2(c3cccc(-c4cnccn4)c3)N=C(N)N(C)C2=O)cc1C(F)(F)F` (stereo not shown) the same measures were “II (II = 10-100-fold selectivity)” and 0.01 to 0.1 µM.

The values above are taken from patent US7700602B2, “Amino-5,5-diphenylimidazolone derivatives for the inhibition of β-secretase” (Wyeth LLC, priority 2004, dated 2010).
